According to PubChem BioAssay (NCI):
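Values below derive from 48-hour exposures of cells grown in 96-well plates, with endpoints linearly interpolated between the two concentrations bracketing the appropriate inhibition level. The concentration for 50% growth inhibition is given as GI50.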

What was measured:
Experiment in all cases: DTP human tumour cell line panel, 48 h; in the data active = GI50 below about 0.43 µM; inactive = the rest
MCF7 breast = system: MCF7 breast
NCI/ADR-RES ovarian = system: NCI/ADR-RES ovarian
MDA-MB-231 breast = system: MDA-MB-231 breast
HCT-116 colon = system: HCT-116 colon

Measured: GI50

C[C@@H]1CCOC(=O)/C=C/C=C\C(=O)O[C@@H]2C[C@H]3O[C@@H]4[C@@H]5OC5(C)CCC4(COC(=O)[C@H]1O)[C@]2(C)[C@@]31CO1 (some centres undefined)
inactive: MCF7 breast 12.9 µM | NCI/ADR-RES ovarian 14.2 µM | MDA-MB-231 breast 0.624 µM | HCT-116 colon 3.53 µM
